# According to PubChem BioAssay AID485360 (National Center for Advancing Translational Sciences (NCATS), 2010):
# Protein sequences, listed by entry. Tags and fused reporters are not part of them.
# UniProt Q9Y468, whole entry: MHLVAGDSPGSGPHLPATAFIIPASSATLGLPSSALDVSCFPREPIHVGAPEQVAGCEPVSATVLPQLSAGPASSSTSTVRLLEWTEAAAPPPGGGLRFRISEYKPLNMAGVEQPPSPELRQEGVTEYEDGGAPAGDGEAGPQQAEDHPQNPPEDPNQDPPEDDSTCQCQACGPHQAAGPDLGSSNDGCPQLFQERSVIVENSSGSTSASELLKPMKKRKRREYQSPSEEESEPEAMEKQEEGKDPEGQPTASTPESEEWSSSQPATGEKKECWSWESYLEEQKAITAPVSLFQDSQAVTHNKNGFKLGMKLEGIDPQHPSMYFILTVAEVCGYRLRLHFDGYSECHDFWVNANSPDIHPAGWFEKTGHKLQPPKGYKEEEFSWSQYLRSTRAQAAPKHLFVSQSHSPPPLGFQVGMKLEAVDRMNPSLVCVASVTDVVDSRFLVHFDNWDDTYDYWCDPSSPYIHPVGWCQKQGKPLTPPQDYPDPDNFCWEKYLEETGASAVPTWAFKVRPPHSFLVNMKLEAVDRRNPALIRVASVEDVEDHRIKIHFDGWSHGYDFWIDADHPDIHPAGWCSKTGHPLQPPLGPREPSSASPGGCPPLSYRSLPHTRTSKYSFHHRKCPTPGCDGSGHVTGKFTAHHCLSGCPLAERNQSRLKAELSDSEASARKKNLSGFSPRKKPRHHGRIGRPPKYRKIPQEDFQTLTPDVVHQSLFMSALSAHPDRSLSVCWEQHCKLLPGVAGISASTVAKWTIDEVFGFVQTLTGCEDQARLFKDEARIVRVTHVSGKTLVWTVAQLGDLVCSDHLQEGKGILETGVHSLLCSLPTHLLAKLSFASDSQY
# The list shows a part of the results, in another mix than the full data. Results filed as inconclusive are left out. Calls of active or inactive are those of the source. The call rests on the fitted dose curve; in most records, active means well fitted inhibition curve with a large enough effect; inconclusive means small, poorly fitted or top-dose-only effect; inactive means no such curve, though single readings can be large or run the other way.
# Biological target: Lethal(3)malignant brain tumor-like protein 1 (Homo sapiens) (UniProt Q9Y468)
# Test: qHTS Assay for the Inhibitors of L3MBTL1; further: nearly all actives have a fitted effect of over 60% in size
# Details: AlphaScreen L3MBTL1–H3K9me1 peptide binding; at 57.1 µM (top of the series) unless noted
# On the % scale 0 is the no-effect control and ±100 the full control effect.
row,SMILES,"activity, negative = inhibition"
1,COc1cc(OC)cc(C(=O)NCC2(N3CCOCC3)CCCCC2)c1,inactive: 3.72%
2,CCC(CO)(C(=O)OC1CN2CCC1CC2)c1ccccc1 (centres undefined),inactive: 9.67%
3,CCCOc1ccc(C)cc1CN(CCCl)CCCl,inactive: 5.98%
4,CN1CCC(Nc2ccc(F)c(Cl)c2)CC1,inactive: -5.1%
5,CC(C)(C)OC(=O)N1CCC(Nc2ccccc2)CC1,inactive: 8.45%
6,CCN1CCC(Nc2cccc(F)c2)CC1,inactive: -4.65%
7,CN(C)c1ccc(C(=O)NCC2(N3CCCCC3)CCCCC2)cc1,inactive: 4.95%
8,O=C(NCC1(N2CCCCC2)CCCCC1)c1ccco1,inactive: 1.16%
9,Fc1ccccc1NC1CCN(Cc2ccccc2)CC1,inactive: -0.114%
10,Cc1ccc(C(=O)NCC2(N3CCCCC3)CCCCC2)o1,inactive: -1.82%
11,CCCN1CCC(Nc2cc(OC)cc(OC)c2)CC1,inactive: -4.81%
12,N#Cc1ccc(C(=O)NCC2(N3CCCCC3)CCCCC2)cc1,inactive: -5.39%
13,CCOC(=O)C(CC)C1=NC(C)(C)Cc2ccccc21.O=[N+]([O-])c1cc([N+](=O)[O-])c(O)c([N+](=O)[O-])c1 (centres undefined),inactive: 0.655%
14,CCOC(=O)N1CCC(Nc2ccc(C)cc2)CC1,inactive: 4.93%
15,N/C(=N\O)c1c(N)no[n+]1[O-],inactive: 7.98%
16,CCc1cc(C(=O)NCC2(N3CCCCC3)CCCCC2)sc1C,inactive: -1.04%
17,O=C(OC1CN2CCC1CC2)C1c2ccccc2C=Cc2ccccc21 (centres undefined),inactive: -3.01%
18,COc1cc(C(=O)NCC2(N3CCOCC3)CCCCC2)cc(OC)c1C,inactive: -4.84%
19,O=C(NCC1(N2CCOCC2)CCCCC1)c1cc(Br)ccc1Cl,inactive: 5.97%
20,O=C(OC1CN2CCC1CC2)c1ccc([N+](=O)[O-])cc1 (centres undefined),inactive: -5.49%
21,O=C(NCC1(N2CCCCC2)CCCCC1)c1cncc(Br)c1,inactive: 4.02%
22,O=[N+]([O-])c1cc([N+](=O)[O-])c(OC2CCCCC2O)c([N+](=O)[O-])c1 (centres undefined),inactive: -1.81%

row,SMILES,"activity, negative = inhibition"
1,COc1ccc(CN(CCCl)CCCl)cc1Cl,inactive: -12%
2,O=C(NCC1(N2CCOCC2)CCCCC1)c1cc(F)c(F)cc1Cl,inactive: 5.28%
3,O=[N+]([O-])c1cc([N+](=O)[O-])c(NCC2CCS(=O)(=O)C2)c([N+](=O)[O-])c1 (centres undefined),inactive: -10.7%
4,COc1ccc(NC2CCN(C(=O)OC(C)(C)C)CC2)cc1,inactive: -12.3%
5,CC(C)c1ccc(C(=O)NCC2(N3CCOCC3)CCCCC2)cc1,inactive: -16.6%
6,CN1CCN(CCOC(=O)C(O)(c2ccccc2)c2ccccc2)CC1,inactive: 11.5%
7,N#CC1(Nc2ccccc2)CCN(CCc2ccccc2)CC1,inactive: -6.17%
8,O=C(NCC1(N2CCCCC2)CCCCC1)c1cccc([N+](=O)[O-])c1,inactive: 21.6%
9,CSc1ccc(C(=O)NCC2(N3CCOCC3)CCCCC2)cc1,inactive: -3.65%
10,Cc1ccc(OCC(C)C)c(CN(CCCl)CCCl)c1,inactive: -1.71%
11,CCOc1ccc(C)cc1CN(CCCl)CCCl,inactive: 7.45%
12,CCOC(=O)N1CCC(Nc2ccc(F)cc2)CC1,inactive: -2.52%
13,COc1ccc(NC2CCN(CCc3ccccc3)CC2)c(OC)c1,inactive: -11.8%
14,CCCCOc1ccc(C(=O)NCC2(N3CCOCC3)CCCCC2)cc1,inactive: 3.48%
15,O=C(NCC1(N2CCCCC2)CCCCC1)c1ccc(Cl)nc1,inactive: -6.02%
16,COc1ccc(Cl)cc1C(=O)NCC1(N2CCOCC2)CCCCC1,inactive: 3.34%
17,O=C(NCC1(N2CCCCC2)CCCCC1)c1ccc(Cl)s1,inactive: 7.33%
18,N#CC1(Nc2ccccc2)CCN(Cc2ccccc2)CC1,inactive: 7.12%
19,O=C(OC1CN2CCC1CC2)C1c2ccccc2Oc2ccccc21 (centres undefined),inactive: -2.77%
20,CCOC(=O)N1CCC(Nc2ccc(OC)cc2)CC1,inactive: -4.54%
21,COc1ccc(C(=O)NCC2(N3CCCCC3)CCCCC2)c(OC)c1OC,inactive: 28.9% [at 11.4 µM]
22,O=C(NCC1(N2CCCCC2)CCCCC1)c1cccs1,inactive: 4.72%
